One test has as its system IL-8. The test can be described thus: IL-8 secretion by HaCaT keratinocytes (ELISA), with or without IFNγ. The test is classed as cell-based, human.
The next test relates to TRF1. Briefly: TRF1 levels in CHA9.3 cells (immunofluorescence). The class given is cell-based. As to conditions: 0.063 mg/mL peptide, 24-hour incubation, vs DMSO control.

Gly-Asn-Glu-Leu-Leu-Asp-Tyr-NH2: the “secretion of IL-8 under inflammatory conditions” value in the test on IL-8 (48 hours, 0.005, 0.01 or 0.05 mg/mL together with IFNγ at 10 ng/mL, compared to positive control (IFNγ alone)) is listed as “decrease, in a dose-dependent manner”. Also, the “secretion of IL-8 under basal conditions” value in the test on IL-8 (without IFNγ, all concentrations tested (SEQ ID NO: 2-NH2 0.005, 0.01, 0.05 mg/mL; SEQ ID NO: 3-NH2 0.01, 0.05 mg/mL), vs untreated cells) is given as “decreased the secretion of IL-8, but to a higher degree than SEQ ID NO: 2-NH2”. Moreover, in the test on TRF1, the TRF1 intensity result is reported as “increase in TRF1”.

The values above are taken from patent publication US20250136641A1, “PEPTIDES AND COMPOSITIONS FOR USE IN COSMETICS, FOOD AND MEDICINE” (priority 2022, published 2025).
